The test system of data set [1] is urine proteases. Nature of the data set: Degradation of purified intact β2-microglobulin spiked into urine (estimation of protease amount, SELDI-TOF-MS). The data set is classed as in vitro ADME, human. Particulars: 10 mg/L β2-microglobulin, pH 5, 37° C., in vitro. As to the method:
Urine from a healthy individual (column 1) and a patient with an acute clinical rejection episode (column 2) was analysed by SELDI-TOF-MS after collection (row A). The three characteristic protein peak clusters resulting from β2-microglobulin cleavages are marked as shaded areas with roman numbers II, III and IV. These samples were then adjusted to pH 5 and incubated for 16 hours at 37° C. which leads to almost complete degradation of existing intact and cleaved β2-microglobulin forms (row B). Subsequently, equal amounts of purified intact β2-microglobulin (final concentration 10 mg/L) were added to both samples (row C). Samples were again incubated at 37° C. and analysed after one (row D) and six hours (row E).
One hundred μL of a urine sample from a healthy individual (important parameters stated above) and 100 μL of a urine sample from a patient with the protein peak clusters (important parameters stated above) were incubated for 16 hours at 37° C. to degrade existing intact and cleaved β2-microglobulin. Sodium acetate pH 5 (final concentration 166 mM) was added to ensure stable pH, and then purified intact β2-microglobulin (final concentration 10 mg/L) was spiked into each sample. SELDI-TOF-MS analysis was performed immediately and after 1, 2, 4, 6 and 24 hours of incubation at 37° C.

The nature of data set [2]: pH dependence of initial cleavage of intact urinary β2-microglobulin (SELDI-TOF-MS). Format: in vitro ADME, human. Particulars: patient urine.

We go through one substance from patent publication US20090093010A1, “Method of Detecting Kidney Dysfunction” (University of Manitoba, priority 2004, published 2009).

Take “β2-microglobulin: 99 amino acid protein with one disulfide bridge, 11,731 Da (Swiss-Prot P61769); purified intact form spiked into urine”: in data set [1], the “Time to complete degradation of β2-microglobulin in a normal urine sample” value was not above 24 h and the “Time to complete degradation of β2-microglobulin in a rejection urine sample” value was not above 6 h. For the same substance, the “Detectability of the intact form of β2-microglobulin after 6 to 24 hours in urine with pH 3 and 4.5” value in data set [2] (pH 3 and 4.5) is recorded as “not detectable anymore”. The “Detectability of the intact form of β2-microglobulin after 6 to 24 hours in urine with pH 6 and 8” value in data set [2] (pH 6 and 8) is reported as “detectable in unchanged intensity”.
